Measured values reported in ChEMBL document CHEMBL4007404, “Identification of High-Potency Human TLR8 and Dual TLR7/TLR8 Agonists in Pyrimidine-2,4-diamines” (J Med Chem, 2017).
Calls of active or inactive are those of the source. The rule behind the calls is not given here.

Molecular target: T1, Toll-like receptor 8 (Homo sapiens) (UniProt Q9NR97)
T1 sequence (whole entry): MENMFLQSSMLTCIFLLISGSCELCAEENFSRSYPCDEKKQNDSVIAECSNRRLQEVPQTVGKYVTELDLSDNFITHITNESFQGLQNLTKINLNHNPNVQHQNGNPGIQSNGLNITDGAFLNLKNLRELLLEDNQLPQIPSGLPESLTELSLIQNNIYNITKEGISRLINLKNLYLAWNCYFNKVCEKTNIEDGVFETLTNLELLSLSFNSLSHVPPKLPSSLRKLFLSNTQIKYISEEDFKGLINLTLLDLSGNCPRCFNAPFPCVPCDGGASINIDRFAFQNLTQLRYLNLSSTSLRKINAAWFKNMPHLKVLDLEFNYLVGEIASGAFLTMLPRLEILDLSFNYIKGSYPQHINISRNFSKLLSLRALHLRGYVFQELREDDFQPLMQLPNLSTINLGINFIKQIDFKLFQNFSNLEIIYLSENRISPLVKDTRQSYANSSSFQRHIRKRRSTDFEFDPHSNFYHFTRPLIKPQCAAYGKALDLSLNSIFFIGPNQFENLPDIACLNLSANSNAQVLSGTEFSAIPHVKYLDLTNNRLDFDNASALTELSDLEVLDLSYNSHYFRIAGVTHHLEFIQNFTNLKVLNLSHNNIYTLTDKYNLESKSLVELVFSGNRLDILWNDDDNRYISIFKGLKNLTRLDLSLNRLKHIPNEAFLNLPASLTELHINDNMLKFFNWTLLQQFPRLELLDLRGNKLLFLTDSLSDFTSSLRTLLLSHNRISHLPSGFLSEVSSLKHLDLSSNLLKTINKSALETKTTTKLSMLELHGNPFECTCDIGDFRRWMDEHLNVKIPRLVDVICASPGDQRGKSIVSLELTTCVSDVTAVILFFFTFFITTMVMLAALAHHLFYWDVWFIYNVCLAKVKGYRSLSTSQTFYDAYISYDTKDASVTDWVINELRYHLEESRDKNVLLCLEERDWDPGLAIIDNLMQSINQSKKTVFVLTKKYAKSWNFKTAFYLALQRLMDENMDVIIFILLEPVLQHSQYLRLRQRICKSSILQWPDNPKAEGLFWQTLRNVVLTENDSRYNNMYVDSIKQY
Test: Agonist activity at TLR8 in human […] conventional dendritic cells assessed as upregulation of CD80 expression after 16 hrs by efluor 780 dye based flow cytometry
Procedure, shortened: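 Human PBMCs were incubated with serial compound dilutions at 37 °C for 16 h, with DMSO controls. Cells were stained with eFluor780 viability dye, then lineage and DC antibodies plus CD80 PE, and fixed. 250,000 gated events were acquired. pDCs were gated as Live Lin⁻ CD123⁺ CD303⁺ CD304⁺ HLA-DR⁺. cDCs were gated as Lin⁻ CD1c⁺ CD141⁻ CD11c⁺ HLA-DR⁺ or Lin⁻ CD141⁺ CD1c⁻ HLA-DR⁺. Median fluorescence intensity was quantified.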

**Q.** For CCCCCc1cc2c(CCCCCN)cccc2nc1N, which Activity is on record?
**A.** The Activity was “Active”.
